Experimental data: patent US20080226758A1, “Lipoxygenase and Cyclooxygenase Inhibition” (priority 2006, published 2008)

Molecular target: T1, 15-LO (Oryctolagus cuniculus, UniProt P12530)
T1 construct: endogenous in cells; host or cells: rabbit reticulocytes
T1 sequence (P12530 1-663): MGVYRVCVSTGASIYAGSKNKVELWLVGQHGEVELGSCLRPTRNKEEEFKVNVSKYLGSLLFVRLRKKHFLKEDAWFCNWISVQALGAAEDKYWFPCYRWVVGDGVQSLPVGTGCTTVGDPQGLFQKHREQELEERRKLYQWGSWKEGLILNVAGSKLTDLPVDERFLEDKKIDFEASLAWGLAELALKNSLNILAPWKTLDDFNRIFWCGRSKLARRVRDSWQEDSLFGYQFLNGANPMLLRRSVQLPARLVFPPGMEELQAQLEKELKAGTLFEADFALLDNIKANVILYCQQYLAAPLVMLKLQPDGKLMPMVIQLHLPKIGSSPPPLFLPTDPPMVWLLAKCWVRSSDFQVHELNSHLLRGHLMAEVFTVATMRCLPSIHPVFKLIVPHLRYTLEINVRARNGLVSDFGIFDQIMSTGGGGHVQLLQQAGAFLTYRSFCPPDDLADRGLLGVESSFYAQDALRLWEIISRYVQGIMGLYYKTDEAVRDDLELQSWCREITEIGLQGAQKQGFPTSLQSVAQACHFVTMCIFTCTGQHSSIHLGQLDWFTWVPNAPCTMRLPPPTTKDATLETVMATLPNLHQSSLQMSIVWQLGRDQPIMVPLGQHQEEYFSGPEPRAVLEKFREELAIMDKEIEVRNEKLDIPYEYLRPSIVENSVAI
Test: 15-LO assay (13-HPODE, spectrophotometric)
Assay type: biochemical
Settings: rabbit reticulocytes; 13-HPODE spectrophotometrically
Method: 5-LO and 15-LO assays: Human peripheral blood mononuclear cells (PBMC) cells and rabbits reticulocytes were used in the 5-LO and 15-LO bioassays, and the assays were conducted according to the protocols reported previously, with either linoleic acid or arachidonic acid as substrates. LO activity was measured by quantifying immunodetectable Leukotriene B4 (LTB4) specifically with enzyme immunoassay (EIA) in the 5-LO assay, or monitoring 13-hydroperoxy-9,11-octadecadienoic acid (13-HPODE) spectrophotometrically in the 15-LO assay.
The results were expressed as either percentage inhibition, or IC50, for test samples and data represent the average ±SD of at least triplicate determinations.

In the case of `c1ccc2c(c1)SCc1c-2[nH]c2ccccc12` [PD-146176, reference compound], the IC50 is reported as 1.12 µM.
